This experiment has as its target T1, BtBamA (Bt3725) with an N-terminal His7 tag (Bacteroides thetaiotaomicron, UniProt Q8A1E1 20-885).
T1 construct: also called BtBamAhis; BamAhis
T1 sequence (looked up): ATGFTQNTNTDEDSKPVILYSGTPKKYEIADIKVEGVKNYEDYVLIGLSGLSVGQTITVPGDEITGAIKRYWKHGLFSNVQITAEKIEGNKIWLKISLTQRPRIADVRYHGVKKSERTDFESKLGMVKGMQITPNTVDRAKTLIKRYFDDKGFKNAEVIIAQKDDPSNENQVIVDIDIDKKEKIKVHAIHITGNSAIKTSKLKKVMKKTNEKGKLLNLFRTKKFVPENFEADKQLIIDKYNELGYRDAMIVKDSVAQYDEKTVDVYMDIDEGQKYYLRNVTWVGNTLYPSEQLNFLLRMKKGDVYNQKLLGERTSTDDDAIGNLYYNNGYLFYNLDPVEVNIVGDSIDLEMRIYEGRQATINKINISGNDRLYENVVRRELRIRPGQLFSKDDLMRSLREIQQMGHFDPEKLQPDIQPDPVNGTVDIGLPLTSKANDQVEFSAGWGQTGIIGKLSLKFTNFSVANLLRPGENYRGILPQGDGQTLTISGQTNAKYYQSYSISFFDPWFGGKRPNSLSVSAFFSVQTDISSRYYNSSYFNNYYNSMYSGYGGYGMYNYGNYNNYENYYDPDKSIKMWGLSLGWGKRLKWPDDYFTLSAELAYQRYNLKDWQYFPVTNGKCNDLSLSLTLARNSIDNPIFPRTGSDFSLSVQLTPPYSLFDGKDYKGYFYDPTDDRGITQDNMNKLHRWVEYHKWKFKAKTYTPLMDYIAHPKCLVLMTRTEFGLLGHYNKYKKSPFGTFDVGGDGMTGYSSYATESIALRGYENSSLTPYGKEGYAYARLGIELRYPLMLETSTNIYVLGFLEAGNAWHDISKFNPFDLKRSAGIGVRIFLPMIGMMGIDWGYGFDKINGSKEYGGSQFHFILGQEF
As to the kind of experiment: affinity purification with mass spectrometry. The note with it: partners not purified.

This note sets out measurements from doi:10.1101/2025.01.31.636011, “Discovery of a distinct BAM complex in the Bacteroidetes” (bioRxiv, 2025).

B1: BtBamF (Bt4367) (natural protein, UniProt Q89ZL0 23-431, looked up)
chain: QNNTNSPYTRYGYGDLSDQSFGNSKAMGGIAFGLRDGAQINPTNPASYTAIDSLTFLFEGGVSLQNMNISGGGLKLNAKNASFDYLAMQFRLAPWMAMSVGLLPYSNVGYTVSDSQTTDNGLAYSRSFTGDGGLHQMYVGAGVKVLKNLSVGVNASYFWGDITRTRGMFYPGTSSYDSYQRKMVTSISDYKLDFGAQYTQALNKKSSLTIGAVYSPKHKLNNDYTSIVIMGASSSSYGTEYKDVLDATFELPNTFGVGFTYNYDKRLTVGADYSLQQWSKTNFGVVTSDENVRQDFNETFTYCDRTKISVGAEYIPNLIGRSYFAHIKYRLGAYYTTPYYKIDGKKASREYGVTAGFGLPVPRSRSILSISGQFVRVKGLETNMVNENIFRVSIGLTFNERWFFKRRVE
modifications: O-glycosylation (glycan on Ser75)
For B1, the binding result was “binds”.
